Results from US7585851B2, “3′-prodrugs of 2′-deoxy-β-L-nucleosides” (priority 2000, dated 2009).

Legend:
HepG2 cells = test: Mitochondrial toxicity assay in HepG2 cells; assay type: cell-based, human; conditions: L-dC treated hepatocytes; read-out: IC50, lactic acid accumulation / mitochondrial changes
[1] = system: human erythroid burst-forming (BFU-E) progenitor cells; assay type: cell-based; conditions: human bone marrow clonogenic assay
Text: (§1) In particular, anemia and neutropenia are the most common drug-related clinical toxicities associated with the anti-HIV drug zidovudine (ZDV).

[2] = system: human granulocyte-macrophage colony-forming (CFU-GM) progenitor cells; assay type: cell-based; conditions: human bone marrow clonogenic assay
Text: as §1

Measured: IC50

Nc1ccn([C@@H]2C[C@@H](O)[C@H](CO)O2)c(=O)n1 [L-dC, 2′-deoxy-β-L-cytidine]
> 10 µM: all assays above
